Experimental data published in ChEMBL document CHEMBL2057149 (J Med Chem, 2012).

Sequences of proteins named here, by UniProt entry; tags and fusion partners are left off.
UniProt P05230, whole entry: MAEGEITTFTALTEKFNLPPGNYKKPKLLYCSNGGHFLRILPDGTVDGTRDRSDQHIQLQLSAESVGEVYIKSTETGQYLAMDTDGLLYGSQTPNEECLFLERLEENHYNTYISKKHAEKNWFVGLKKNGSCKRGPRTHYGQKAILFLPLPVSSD

Molecular target: Fibroblast growth factor 1 (Homo sapiens, UniProt P05230)
Experiment: Binding affinity to FGF-1 by surface plasmon resonance assay
How it was run: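 Solution-affinity SPR on heparin-coated CM4 chips. FGF-1 measured in HBS-EP (10 mM HEPES pH 7.4, 150 mM NaCl, 3.0 mM EDTA, 0.005% polysorbate 20); FGF-2 measured in HBS-EP with 300 mM NaCl. Kd is the average of at least duplicate measurements ± SD.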

SMILES: CC(C)CCC[C@@H](C)[C@H]1CC[C@H]2[C@@H]3CC[C@H]4C[C@@H](O[C@@H]5O[C@H](COS(=O)(=O)[O-])[C@@H](O[C@H]6O[C@H](COS(=O)(=O)[O-])[C@@H](O[C@H]7O[C@H](COS(=O)(=O)[O-])[C@@H](O[C@H]8O[C@H](COS(=O)(=O)[O-])[C@@H](OS(=O)(=O)[O-])[C@H](OS(=O)(=O)[O-])[C@H]8OS(=O)(=O)[O-])[C@H](OS(=O)(=O)[O-])[C@H]7OS(=O)(=O)[O-])[C@H](OS(=O)(=O)[O-])[C@H]6OS(=O)(=O)[O-])[C@H](OS(=O)(=O)[O-])[C@H]5OS(=O)(=O)[O-])CC[C@]4(C)[C@H]3CC[C@]12C.[Na+].[Na+].[Na+].[Na+].[Na+].[Na+].[Na+].[Na+].[Na+].[Na+].[Na+].[Na+].[Na+]
- Kd: 8 nM
